Laboratory results as given in ChEMBL document CHEMBL5614382, “Discovery of a new 1-(phenylsulfonyl)-1H-indole derivative targeting the EphA2 receptor with antiproliferative activity on U251 glioblastoma cell line” (Eur J Med Chem, 2024).

Target: T1, Ephrin type-B receptor 2 (Mus musculus, UniProt P54763)
T1 sequence (P54763 whole entry): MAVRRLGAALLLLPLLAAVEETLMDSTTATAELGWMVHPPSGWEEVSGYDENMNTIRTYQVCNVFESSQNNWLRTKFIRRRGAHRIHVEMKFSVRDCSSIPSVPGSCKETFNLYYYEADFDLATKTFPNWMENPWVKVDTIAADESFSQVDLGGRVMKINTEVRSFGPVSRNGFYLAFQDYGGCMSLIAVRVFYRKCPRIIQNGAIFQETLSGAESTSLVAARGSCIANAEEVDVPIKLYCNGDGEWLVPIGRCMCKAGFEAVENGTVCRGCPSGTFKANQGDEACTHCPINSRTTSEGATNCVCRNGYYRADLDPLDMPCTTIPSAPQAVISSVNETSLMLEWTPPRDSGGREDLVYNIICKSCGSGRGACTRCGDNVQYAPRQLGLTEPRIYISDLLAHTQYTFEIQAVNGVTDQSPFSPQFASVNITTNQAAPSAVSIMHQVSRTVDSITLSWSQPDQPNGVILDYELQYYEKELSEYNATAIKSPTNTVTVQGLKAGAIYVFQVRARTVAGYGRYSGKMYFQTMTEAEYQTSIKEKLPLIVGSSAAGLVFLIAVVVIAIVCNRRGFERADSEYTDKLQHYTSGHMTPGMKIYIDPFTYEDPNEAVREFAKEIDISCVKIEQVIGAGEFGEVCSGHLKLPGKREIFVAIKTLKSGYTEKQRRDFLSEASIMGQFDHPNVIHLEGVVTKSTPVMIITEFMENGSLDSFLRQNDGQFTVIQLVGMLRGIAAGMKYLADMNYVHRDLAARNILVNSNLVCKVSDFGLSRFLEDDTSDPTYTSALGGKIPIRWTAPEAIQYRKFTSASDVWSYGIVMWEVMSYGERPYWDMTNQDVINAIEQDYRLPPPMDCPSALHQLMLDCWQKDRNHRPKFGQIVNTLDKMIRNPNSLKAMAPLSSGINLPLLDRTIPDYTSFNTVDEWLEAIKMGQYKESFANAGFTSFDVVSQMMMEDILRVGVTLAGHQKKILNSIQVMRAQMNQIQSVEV
Assay: Displacement of biotinylated Fc-tagged ephrin-B1 from recombinant N/C-terminal 6-his tagged mouse EphB2 (Val27 to Lys548 residues) preincubated for 1 hr followed by ephrin-B1-Fc addition and measured after 4 to 5 hrs by ELISA assay

C[C@H](CCC(=O)N[C@H](CC(=O)O)Cc1c[nH]c2ccccc12)[C@H]1CC[C@H]2[C@@H]3CC=C4C[C@@H](O)CC[C@]4(C)[C@H]3CC[C@]12C
IC50: 16 µM
